Consider one substance from patent publication US11426395B2, “PSMA inhibitor derivatives for labelling with 99mTc via HYNIC, a radiopharmaceutical kit, radiopharmaceutical preparations and their use in prostate cancer diagnostics” (Narodowe Centrum Badan Jadrowych, Osrodek Radioizotopow …, priority 2019, dated 2022).

A short description of this data set: Solubility according to Ph. Eur.

As for “Benzenesulfonic acid hydrazone of PSMA-T4”, the “Solubility according to Ph. Eur.” value is listed as “ethanol: soluble” (ethanol), “soluble” (pH 7.4 phosphate buffer) and “water: soluble” (water).
